The text below walks through data of patent publication US11351221B2, “SMAC mimetic” (Medivir AB, priority 2009, dated 2022).

Read-outs that look alike come from different tables or passages of the source.

The test system of data set [1] is MDA-MB-231 human breast tumor cells. Kind of data set: MDA-MB-231 xenograft tumor growth delay. Conditions: 20 mg/Kg i.p., q3dx5. The class given is in vivo, female nude mice. As to the method: MDA-MB-231 xenograft data were generated substantially as follows. MDA-MB-231 human breast tumor cells were injected into the mammary fat pad of female nude mice and dosing initiated twelve days later at an average tumor volume of approximately 148 mm^3. No tumor burden was associated with this model based on lack of weight loss or animal morbidity in control groups. Mice were injected subcutaneously into the mammary fat pad with 1×10^7 cells suspended in 200 μl of a 1:1 HBSS: Matrigel solution; injected cells were within nine passages of the original lot. Pre-study tumor volumes were recorded beginning approximately one week prior to the estimated start date. […]
Beginning on Day 0, animals were observed daily and weighed twice weekly using a digital scale (Ohaus SP601); data including individual and mean gram weights (Mean We±SD), mean percent weight change versus Day 0 (% vD0) and mean percent weight change versus prior measurement (% vD−x) were recorded for each group and plotted at study completion.
Beginning on Day 0, tumor dimensions were measured twice weekly by digital caliper (Fowler Ultra-Cal IV) and data including individual and mean estimated tumor volumes (Mean TV±SEM) recorded for each group; tumor volume was calculated using the formula: TV=width^2×length×0.52. […]

Data set [2] is classed as in vivo. Conditions: rat; for Clinical signs: iv. As to the method: Body weight loss (BWL), mortality and additional toxicity data were generated substantially as follows. Sprague-Dawley rats were dosed daily (QD×4, i.v. bolus slow push) with Compounds 15, 4 and 5. Body weights were taken on day 4 and are shown as percent change from day 1. Compounds 4 and 5 were administered at 0.3 mg/Kg, 1 mg/Kg, or 3 mg/Kg; Compound 15 was administered at 1, 5, or 10 mg/Kg.

In the case of `CC[C@H](NC(=O)[C@H](C)NC)C(=O)N1C[C@@H](O)C[C@H]1Cc1c(-c2[nH]c3cc(F)ccc3c2C[C@@H]2C[C@H](O)CN2C(=O)[C@H](CC)NC(=O)[C@H](C)NC)[nH]c2cc(F)ccc12` [Compound 15, N-{1S-[2R-(6,6′-Difluoro-3′-{4S-hydroxy-1-[2S-(2S-methylamino-propionylamino)-butyryl]-pyrrolidin-2R-ylmethyl}-1H,1′H-[2,2′]biindolyl-3-ylmethyl)-4S-hydroxy-pyrrolidine-1-carbonyl]-propyl}-2S-methylamino-propionamide], the “Anti-tumor activity relative to Compound 5 at 15 mg/Kg” value in data set [1] is “comparable anti-tumor activity”. The Mortality entry in data set [2] (10 mg/Kg, QDx4 i.v. bolus) is reported as “mortality was observed”. Besides, in data set [2] (in vivo, 1 mg/kg/day), the “Bone marrow hypocellularity of the erythroid series (anatomic pathology)” value is “minimal to mild”, the “Hypercellularity of the myeloid series (anatomic pathology)” value is on record as “minimal to mild”, the “Type 2 pneumocyte hypertrophy/hyperplasia in the lungs (anatomic pathology)” value is recorded as “minimal” and the Clinical signs entry is recorded as “no clinical signs noted”. Moreover, in data set [2] (in vivo, 5 mg/kg/day), the Clinical signs entry is “lethargy, increased/irregular respiration and increased heart rate”.
